Measured values from patent US5458889A (priority 1986, dated 1995).

System: Streptococcus Faecalis
Assay type: cell-based

Q: `F` [fluoride anion F^-] was tested. Which “effect on the unfavourable effect of the serous proteins” value did it give?
A: advantageously decreases the unfavourable effect of the serous proteins
